Measurements reported in patent US12076312B2, “Repurposing anti-androgen therapy for COVID-19 and immunotherapy” (Wisconsin Alumni Research Foundation, priority 2021, dated 2024).

Assays:
[1] = system: AR protein translocation in A549; experiment: AR immunofluorescent imaging, nuclear translocation; conditions: A549, 5 μM enzalutamide with 1 nM R1881, 24 h
[2] = system: AR protein translocation in H2228; experiment: as above; conditions: H2228, 5 μM enzalutamide with 1 nM R1881, 24 h

## CNC(=O)c1ccc(N2C(=S)N(c3ccc(C#N)c(C(F)(F)F)c3)C(=O)C2(C)C)cc1F [enzalutamide]
[1]
  transport of liganded AR to the nucleus: disrupted
[2]
  transport of liganded AR to the nucleus: disrupted
